Reference: patent US20220177569A1 (Novartis, published 2022)

Key:
Recombinant human IL-18 [1] = target: T1, Recombinant human IL-18 (human, UniProt Q14116 37-193); assay: cell-based or functional assay
Recombinant human IL-1β [2] = target: T2, Recombinant human IL-1β (human, UniProt P01584 117-269); assay: cell-based or functional assay
Recombinant human IL-1β [3] = target: T2, Recombinant human IL-1β; assay: SET, simultaneous target binding, Assay A (excess of the other target, IL-18)
Protocol: (§1) The plate was blocked with 50 μl/well blocking buffer (PBS containing 5% BSA) for 1 hour (h), at room temperature (RT). After washing (TBST, TBS containing 0.05% Tween 20), a volume of 30 μl/well of the equilibrated antigen- antibody mix was transferred from the polypropylene MTP to the coated MSD plate and incubated for 20 min at RT. After an additional wash step, 30 μl sulfo tag-labeled anti-IgG detection antibody (0.5 μg/ml) diluted in sample buffer were added to each well and incubated for 30 min at RT on a shaker. The MSD plate was washed and 35 μl/well MSD read buffer were added and incubated for 5 min at RT. Electrochemiluminescence (ECL) signals were generated and measured by the MSD Sector Imager 6000.
(§2) Assay B: The equilibration process (antibody/antigen mix) was performed with both targets in serial dilutions in one mix simultaneously (constant concentration of antibody […], highest antigen conc. see above). The same mix was then analyzed for its free antibody concentration on IL18 and IL-1β coated plates as described above.

[4] = target: T3, Recombinant marmoset IL-1β (marmoset, UniProt U3E018 117-268); assay: as above
T3 construct: also called marIL-1β
Protocol: as §1, §2

Recombinant human IL-18 [5] = target: T1, Recombinant human IL-18; assay: SET, simultaneous target binding, Assay B (both targets in serial dilutions in one mix)
Protocol: as §1, §2

Recombinant human IL-1β [6] = target: T2, Recombinant human IL-1β; assay: as above
Protocol: as §1, §2

[7] = target: T3, Recombinant marmoset IL-1β; assay: as above
Protocol: as §1, §2

[8] = target: T4, Recombinant marmoset IL-18 (marmoset, UniProt U3CWC9 37-190); assay: as above
T4 construct: also called marIL-18
T4 sequence: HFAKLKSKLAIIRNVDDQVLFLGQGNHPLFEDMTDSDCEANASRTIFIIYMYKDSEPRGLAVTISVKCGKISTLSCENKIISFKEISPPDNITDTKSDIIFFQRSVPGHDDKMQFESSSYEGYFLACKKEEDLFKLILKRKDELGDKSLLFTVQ
Protocol: as §1, §2

Recombinant human IL-18 [9] = target: T1, Recombinant human IL-18; assay: SET, simultaneous target binding, Assay A (excess of the other target, IL-1β)
Protocol: as §1, §2

[10] = target: T4, Recombinant marmoset IL-18; assay: as above
Protocol: as §1, §2

Recombinant human IL-18 [11] = target: T1, Recombinant human IL-18; assay: SET (solution equilibrium titration, MSD ECL), individual target binding
Protocol: as §1

Recombinant human IL-1β [12] = target: T2, Recombinant human IL-1β; assay: as above
Protocol: as §1

[13] = target: T3, Recombinant marmoset IL-1β; assay: as above
Protocol: as §1

[14] = target: T4, Recombinant marmoset IL-18; assay: as above
Protocol: as §1

[15] = target: T3, Recombinant marmoset IL-1β; assay: cell-based or functional assay
Recombinant human IL-1β [16] = target: T2, Recombinant human IL-1β; assay: cell-based or functional assay; remark: listed apart in the source
Recombinant human IL-18 [17] = target: T1, Recombinant human IL-18; assay: cell-based or functional assay; remark: listed apart in the source
[18] = target: T4, Recombinant marmoset IL-18; assay: cell-based or functional assay

B1: bbmAb1, bispecific IgG1 with LALA silencing mutations, knob-into-hole, binding IL-1β and IL-18 (bispecific antibody)
heavy 1: not shown
light 1: not shown
heavy 2: not shown
light 2: EIVLTQSPDFQSVTPKEKVTITCRASQSIGSSLHWYQQKPDQSPKLLIKYASQSFSGVPSRFSGSGSGTDFTLTINSLEAEDAAAYYCHQSSSLPFTFGPGTKVDIKRTVAAPSVFIFPPSDEQLKSGTASVVCLLNNFYPREAKVQWKVDNALQSGNSQESVTEQDSKDSTYSLSSTLTLSKADYEKHKVYACEVTHQGLSSPVTKSFNRGEC
**Q.** Which results are given for B1?
**A.** Inhibition of SEAP in HEK reporter cells stimulated simultaneously with IL-1β and IL-18, IC50 (Recombinant human IL-18 [1]): 0.71 nM; Inhibition of SEAP in HEK reporter cells stimulated simultaneously with IL-1β and IL-18, IC50 (Recombinant human IL-1β [2]): 0.71 nM; Kd (Recombinant human IL-1β [3]): 0.003 nM; Kd [4]: 0.002 nM; Kd (Recombinant human IL-18 [5]): 0.0195 nM; Kd (Recombinant human IL-1β [6]): 0.0005 nM; Kd [7]: 0.0006 nM; Kd [8]: 0.0442 nM; Kd (Recombinant human IL-18 [9]): 0.0148 nM; Kd [10]: 0.0479 nM; Kd (Recombinant human IL-18 [11]): 0.012 nM; Kd (Recombinant human IL-1β [12]): 0.0026 nM; Kd [13]: 0.003 nM; Kd [14]: 0.033 nM; IL-6 prod. dermal fibroblasts IC50, Exp. B (18 pM recombinant marmoset IL-1β; marmoset cells by the reading of the header) [15]: 0.364 nM; IL-6 prod. dermal fibroblasts IC50, Exp. C (18 pM recombinant marmoset IL-1β; human cells by the reading of the header) [15]: 0.22 nM; IL-6 prod. marmoset dermal fibroblasts IC50, Exp. A (18 pM recombinant marmoset IL-1β) [15]: 0.174 nM; IL-6 prod. PBMC IC50 (human PBMC stimulated with 60 pM recombinant human IL-1β) (Recombinant human IL-1β [16]): 1.35 nM; IL-6 prod. derm. fibrobl. IC50 (human dermal fibroblasts stimulated with 6 pM recombinant human IL-1β) (Recombinant human IL-1β [16]): 0.136 nM; IFNγ prod. KG-1 cells IC50 (3 nM recombinant human IL-18 and 1 ng/ml human IL-12) (Recombinant human IL-18 [17]): 0.071 nM; IFNγ prod. PBMC IC50 (3 nM recombinant human IL-18 and 1 ng/ml human IL-12) (Recombinant human IL-18 [17]): 0.87 nM; IFNγ prod. Marmoset blood IC50 (marmoset IL-18 1 nM and human IL-12 10 ng/ml) [18]: 10 nM
